Measurements as given in patent US20110319464A1, “METHODS FOR TREATING BENIGN PROSTATIC HYPERPLASIA” (KISSEI PHARMACEUTICAL CO., LTD., priority 2007, published 2011).

Chains of the proteins cited; added tags and fusions are not shown. Lines headed by an entry give the natural chain unless they say otherwise; changes in a name come on top.
UniProt P35348: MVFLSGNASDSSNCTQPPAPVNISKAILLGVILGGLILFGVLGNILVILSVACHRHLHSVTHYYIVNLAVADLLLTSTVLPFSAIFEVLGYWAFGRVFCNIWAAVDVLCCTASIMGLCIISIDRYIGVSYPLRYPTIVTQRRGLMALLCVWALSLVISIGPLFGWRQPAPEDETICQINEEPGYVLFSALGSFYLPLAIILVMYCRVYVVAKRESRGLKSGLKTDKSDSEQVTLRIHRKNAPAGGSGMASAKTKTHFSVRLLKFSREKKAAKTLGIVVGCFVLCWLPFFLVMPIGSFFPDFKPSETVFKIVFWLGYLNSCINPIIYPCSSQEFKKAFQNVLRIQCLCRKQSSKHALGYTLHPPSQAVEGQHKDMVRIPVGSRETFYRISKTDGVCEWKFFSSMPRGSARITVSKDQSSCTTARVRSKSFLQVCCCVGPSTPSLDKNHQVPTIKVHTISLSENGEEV

What was measured:
[1] = Pharmacokinetic Study on Silodosin (Study US011), once daily for seven days, fed state; conditions: 4 mg twice daily 7 days (simulated from Table 2a)
[2] = tested on: symptoms associated with BPH; experiment: Efficacy Studies on Silodosin, studies A-E compared (once daily vs twice daily); assay type: in vivo, human; conditions: Table 8; despite a two-fold increase in Cmax
Excerpt: In addition, the results for IPSS/AUASS for studies A, B, D and E are illustrated in FIGS. 3 to 6, respectively, and the results for Qmax for studies A, B, D and E are illustrated in FIGS. 7 to 10, respectively.

[3] = biological target: α1A receptor (Homo sapiens, UniProt P35348); conditions: background statement; cited from earlier work

**Q.** With `C[C@H](Cc1cc2c(c(C(N)=O)c1)N(CCCO)CC2)NCCOc1ccccc1OCC(F)(F)F` [Silodosin] as the molecule, how does the “Estimated Blood Plasma Concentrations” value ([1]; Day 7, 0 h (t0)) read?
**A.** 1.73 ng/mL

**Q.** And the “Estimated Blood Plasma Concentrations” value ([1]; Day 7, 0.5 h)?
**A.** 2.81 ng/mL

**Q.** What about the “Estimated Blood Plasma Concentrations” value ([1]; Day 7, 1 h) of the same molecule?
**A.** 9.77 ng/mL

**Q.** What about the “Estimated Blood Plasma Concentrations” value ([1]; Day 7, 1.5 h) of the same molecule?
**A.** 19.31 ng/mL

**Q.** What about the “Estimated Blood Plasma Concentrations” value ([1]; Day 7, 2 h) of the same molecule?
**A.** 31.48 ng/mL

**Q.** And the “Estimated Blood Plasma Concentrations” value ([1]; Day 7, 3 h)?
**A.** 32.45 ng/mL

**Q.** What about the “Estimated Blood Plasma Concentrations” value ([1]; Day 7, 4 h) of the same molecule?
**A.** 19.56 ng/mL

**Q.** What about the “Estimated Blood Plasma Concentrations” value ([1]; Day 7, 6 h) of the same molecule?
**A.** 7.89 ng/mL

**Q.** And the “Estimated Blood Plasma Concentrations” value ([1]; Day 7, 8 h)?
**A.** 5.93 ng/mL

**Q.** What about the “Estimated Blood Plasma Concentrations” value ([1]; Day 7, 12 h) of the same molecule?
**A.** 1.73 ng/mL

**Q.** And the “Estimated Blood Plasma Concentrations” value ([1]; Day 7, 16 h)?
**A.** 19.56 ng/mL

**Q.** And the “Estimated Blood Plasma Concentrations” value ([1]; Day 7, 24 h)?
**A.** 3.31 ng/mL

**Q.** And the “cardiovascular adverse events (such as orthostatic hypotension), 8 mg once daily compared with 4 mg twice daily, relative to placebo controls” value [2]?
**A.** does not produce a concomitant increase in cardiovascular adverse events

**Q.** And the “selectivity for the α1A receptor relative to α1B and α1D receptors” value [3]?
**A.** high selectivity
